Data on 1 molecule can be found in patent publication US20150133456A1, “FLUOROERGOLINE DERIVATIVES AND USES THEREOF” (MAP PHARMACEUTICALS, INC., priority 2012, published 2015).

Protein sequences, listed by entry. Tags and fused reporters are not part of them.
UniProt P18089, whole entry: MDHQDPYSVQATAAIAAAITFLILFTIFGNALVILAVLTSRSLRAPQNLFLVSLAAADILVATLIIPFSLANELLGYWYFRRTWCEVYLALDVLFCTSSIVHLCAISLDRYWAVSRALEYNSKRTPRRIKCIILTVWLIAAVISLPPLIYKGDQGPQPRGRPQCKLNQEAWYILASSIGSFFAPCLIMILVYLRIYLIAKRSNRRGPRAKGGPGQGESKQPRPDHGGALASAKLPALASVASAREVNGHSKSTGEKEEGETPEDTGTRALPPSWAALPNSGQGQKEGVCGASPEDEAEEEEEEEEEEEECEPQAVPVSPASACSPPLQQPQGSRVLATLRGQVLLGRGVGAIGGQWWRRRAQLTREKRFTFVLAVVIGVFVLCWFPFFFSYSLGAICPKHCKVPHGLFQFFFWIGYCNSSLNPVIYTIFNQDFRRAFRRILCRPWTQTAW

The target of the assay is human α2B receptor (Homo sapiens, UniProt P18089). Put plainly: biochemical.

The term IC50 denotes the concentration that inhibits the measured activity by half.

Structures are written as SMILES.

`CN1C[C@H](C(=O)N[C@]2(C)O[C@@]3(O)[C@@H]4CCCN4C(=O)[C@H](Cc4ccccc4)N3C2=O)CC2c3cccc4[nH]c(C(F)(F)F)c(c34)CC21` (stereo partly shown) [2-CF3-dihydroergotamine] displayed an IC50 of 2140 nM.
